SMILES strings stand for the structures. This is a selection: effects in other tests are not listed, and their absence says nothing.

Data on 1 molecule can be found in publication PMC7460505.

For test [1], the system named is monoclonal anti-TNT antibody EW75C (mouse IgG1). Put plainly: indirect competitive ELISA.
Test [2] concerns monoclonal anti-2,4,6-trinitrotoluene (TNT) antibody A1.1.1 (mouse, subtype IgG1). Put plainly: indirect competitive ELISA; also kinetic-competition immunofluorometric biosensor with Dy-654-labeled antibody.

Take `Cc1c([N+](=O)[O-])cc([N+](=O)[O-])cc1[N+](=O)[O-]`: the IC50 (usually the concentration that inhibits the measured activity by half) in test [1] was 36 nM; in test [2], 1.2 nM.
